From patent US5162115A, “Antineoplastic solution and method for treating neoplasms” (priority 1991, dated 1992)
“Also recorded” adds a separate entry of the source.

Tested on: T9 gliosarcoma
Test: Histology of brain/tumor of treated T9 gliosarcoma bearing rats
Type: in vivo, rat (male CDF, Fischer 344)
Source text: Using length of survival as an endpoint, the efficacy of the two therapeutic regimens was compared. All animals were autopsied at their time of death. A gross inspection was made of the lungs, liver and kidneys, and the brain was removed in toto and fixed in 10% buffered formalin for three days. A single coronal section was cut through the center of the tumor site and both halves were imbedded in paraffin and stained with hematoxylin and eosin for blind histopathologic examination. Median survival rates were calculated for each group, and the data were analyzed nonparametrically with the Wilcoxon rank sum test.
To study acute effects on the tumor some of the intratumoral solution BCNU treated animals (n=12) were sacrificed healthy on days 7, 10 and 14.

## O=NN(CCCl)C(=O)NCCCl [BCNU, 1,3-bis(2-chloroethyl)-1-nitrosourea]
BCNU treated, 94, 108 and 98 days
  histology, three animals which lived relatively long: Two of these histologically presented acute hemorrhage and no tumor; also recorded: the third displayed a large cyst with polymorphonuclear leukocytes and some very unhealthy T9 tumor tissue
BCNU treated, 600-700 days
  histology, animals which lived a normal life span: displayed large cysts always surrounded by dense connective tissue capsules, some containing polymorphonuclear leukocytes; also recorded: no T9 gliosarcoma tumor was found, tumor cell necrosis was usually present as was hemosiderin pigment; also recorded: Some animals also presented with extensive infiltrates of lymphocytes and plasma cells; also recorded: totally eradicated the tumors in animals which lived a normal life span
BCNU treated, days 251-325
  histology, animals that died during phase 3: demonstrated cysts, necrosis, scar tissue, and no T9 gliosarcoma
BCNU treated, death at 18-24 days
  histology, animals which died during phase one: displayed typical large healthy tumors; also recorded: tumor cell necrosis was also observed, usually at top of the tumor while the bottom grew out aggressively; also recorded: Cysts with polymorphonuclear leukocytes and sometimes hemorrhage were found
BCNU treated, death at 25-166 days
  histology, animals that died during phase 2: large tumors containing prominent bands of central necrosis
Intratumoral BCNU formulation, deep into the tumor
  necrosis of normal tissue: minimal necrosis of normal tissue was observed
Intratumoral BCNU solution, n=12, sacrificed days 7, 10 and 14, three groups
  acute effects on the tumor (histology): One group displayed tumor destruction at the top, with the majority of the tumor left untouched; also recorded: In a second group most of the tumor was successfully treated, but small amounts of viable tumor remained; also recorded: In a third group the tumor was totally eradicated by the therapy and was replaced with a cyst containing necrotic tumor tissue
Single 4 mm deep injection of BCNU solution
  histology, animals which did not live a normal life span: did miss a portion of the tumor in most animals which did not live a normal life span
